This note sets out measurements from patent US20230131993A1 (priority 2020, published 2023).

For series [1] the following is noted: 24 h, 0.1 %.
The conditions of series [2]: 24 h, 0.1 %. The source holds these as a separate data set.

Regarding `O=P(O)(O)O[C@H]1[C@H](OP(=O)(O)O)[C@@H](OP(=O)(O)O)[C@H](OP(=O)(O)O)[C@@H](OP(=O)(O)O)[C@H]1OP(=O)(O)O` [Phytic Acid], the “Degradation (%) of Avenanthramide C” value in series [1] is on record as 85.7%. Also, in series [2], the “Degradation of Avenanthramide B (%)” value was determined as 14.8%.
